Assay results as given in patent publication US20030135023A1, “Peptide structures useful for competitive modulation of dipeptidyl peptidase IV catalysis” (priority 2001, published 2003).

Amino acid sequences for entries named in this document (tags omitted). A change or cut given only in a name is not applied to a line headed by its entry. Residues count along the entry.
UniProt P22411: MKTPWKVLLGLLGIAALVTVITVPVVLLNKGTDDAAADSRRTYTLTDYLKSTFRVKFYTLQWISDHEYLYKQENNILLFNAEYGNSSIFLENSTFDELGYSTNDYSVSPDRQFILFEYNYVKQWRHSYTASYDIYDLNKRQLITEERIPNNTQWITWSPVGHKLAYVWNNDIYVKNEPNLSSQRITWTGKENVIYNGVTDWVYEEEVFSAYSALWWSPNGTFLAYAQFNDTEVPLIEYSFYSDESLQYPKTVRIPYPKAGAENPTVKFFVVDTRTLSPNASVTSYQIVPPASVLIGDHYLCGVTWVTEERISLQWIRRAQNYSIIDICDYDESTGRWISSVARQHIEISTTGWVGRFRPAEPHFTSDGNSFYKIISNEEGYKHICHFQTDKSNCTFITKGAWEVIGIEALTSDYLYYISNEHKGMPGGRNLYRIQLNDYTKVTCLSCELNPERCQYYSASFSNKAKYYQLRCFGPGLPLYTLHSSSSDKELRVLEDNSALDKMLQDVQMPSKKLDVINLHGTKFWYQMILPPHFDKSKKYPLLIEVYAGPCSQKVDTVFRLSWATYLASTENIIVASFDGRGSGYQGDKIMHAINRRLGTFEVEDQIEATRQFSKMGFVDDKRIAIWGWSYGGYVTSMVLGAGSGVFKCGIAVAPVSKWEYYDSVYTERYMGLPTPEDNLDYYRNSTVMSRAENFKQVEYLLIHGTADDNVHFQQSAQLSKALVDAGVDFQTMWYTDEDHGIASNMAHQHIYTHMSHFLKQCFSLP
UniProt P14740, 37-767 limits assumed: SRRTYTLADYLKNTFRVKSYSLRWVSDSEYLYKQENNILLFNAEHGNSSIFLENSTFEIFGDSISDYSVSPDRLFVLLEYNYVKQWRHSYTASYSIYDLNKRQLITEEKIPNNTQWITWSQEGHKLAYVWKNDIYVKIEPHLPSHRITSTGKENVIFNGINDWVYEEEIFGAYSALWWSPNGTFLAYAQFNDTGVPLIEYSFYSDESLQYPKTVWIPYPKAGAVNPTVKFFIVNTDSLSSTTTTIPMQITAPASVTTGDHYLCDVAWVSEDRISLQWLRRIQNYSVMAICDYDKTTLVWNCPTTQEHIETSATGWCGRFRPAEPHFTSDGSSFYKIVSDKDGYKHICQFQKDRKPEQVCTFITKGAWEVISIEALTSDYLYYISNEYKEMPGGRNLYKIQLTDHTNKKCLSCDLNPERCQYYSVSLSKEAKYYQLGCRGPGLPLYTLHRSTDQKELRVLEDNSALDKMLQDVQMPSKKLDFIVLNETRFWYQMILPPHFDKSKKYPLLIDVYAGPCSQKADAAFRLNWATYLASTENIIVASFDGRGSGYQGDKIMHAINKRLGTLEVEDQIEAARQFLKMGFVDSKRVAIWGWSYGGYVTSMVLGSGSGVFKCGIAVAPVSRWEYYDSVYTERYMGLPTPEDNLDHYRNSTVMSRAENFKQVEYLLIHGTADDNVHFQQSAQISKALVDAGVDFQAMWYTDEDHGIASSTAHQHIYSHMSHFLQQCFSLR

Assays:
purified porcine DP IV [1] = target: T1, purified porcine DP IV (Sus scrofa, UniProt P22411); test: Determination of IC50-values, Gly-Pro-pNA cleavage by DP IV; type: biochemical; conditions: Gly-Pro-pNA 0.4 mM, HEPES pH 7.6, 30° C.
Method: (§1) 100 μl inhibitor stock solution were mixed with 100 μl buffer (HEPES pH 7.6) and 50 μl substrate (Gly-Pro-pNA, final concentration 0.4 mM) and preincubated at 30° C. Reaction was started by addition of 20 μl purified porcine DP IV. Formation of the product pNA was measured at 405 nm over 10 min using the HTS 7000 Plus plate reader (Perkin Elmer) and slopes were calculated. The final inhibitor concentrations ranged between 1 mM and 30 nM.
For calculation of IC50-values GraFit 4.0.13 (Erithacus Software) was used.

purified porcine DP IV [2] = target: T1, purified porcine DP IV; test: Determination of Ki-values, Gly-Pro-pNA cleavage by DP IV; type: biochemical; conditions: Gly-Pro-pNA 0.05-0.4 mM
Method: as §1
Calculations were performed using the GraFit Software.

plasma DP IV = target: T2, plasma DP IV (Rattus norvegicus, UniProt P14740); test: Plasma DP IV activity after intravasal and oral administration in Wistar rats; type: in vivo
T2 construct: The assay mixture consisted of 80 μl reagent and 20 μl plasma; from tissue; host or cells: plasma of Wistar rats
Method: Rats with intact catheter function were given the test substances intravasal (intraarterial) or oral, respectively, in random order (N=3 Wistar rats in each group). As positive control, […]. isoleucine thiazolidine*fumarate were administered intravasal.
After overnight fasting, 100 μl samples of heparinized arterial blood were collected at −30, −5, and 0 min into ice-cooled Eppendorf tubes (see below). The test substances were dissolved freshly in 1.0 ml saline (0.154 mol/l) and were given at 0 min either oral via a feeding tube ([…], 75 mm; Fine Science Tools, Heidelberg, Germany) or intravasal. For the intravasal route, the catheter was immediately flushed with 30 μl saline and an additional 1 ml of saline was given orally via the feeding tube.
Arterial blood samples were taken thereafter at 5, 10 (only in a limited number of experiments), 20, 40, 60 and 120 min from the carotid catheter of the conscious unrestrained rats and were always given into ice cooled Eppendorf tubes (Eppendorf-Netheler-Hinz, Hamburg, Germany) filled with 10 μl 1 M citrate buffer pH 3.0 for prevention of further hydrolysis of tripeptides by plasma DP IV activity. Eppendorf tubes were centrifuged immediately (12000 rpm for 2 min, Hettich Zentrifuge EBA 12, Tuttlingen; Germany): The plasma fractions were store on ice until analysis or were deeply frozen at −20 ° C. until analysis.
Plasma DP IV activity: The assay mixture consisted of 80 μl reagent and 20 μl plasma. Kinetic measurements of the formation of the yellow product 4-nitroaniline were performed at 390 nm for 1 min at 30° C. after 2 min pre-incubation at the same temperature. The activity was expressed as arbitrary units [AU] and DP IV activity [mU/ml].
The absolute values of plasma DP IV activity, the relative change of plasma DP IV activity and the time and extent of maximal inhibition were calculated. Data presentation included the presentation of area under the curve (AUC), which was used for evaluation of extent of inhibition of plasma DP IV activity during the two hours of observation. AUC was calculated using the trapezoidal rule.
To compare relative changes of parameters under the conditions of different initial values of DP IV activity an uniform standardised mean (values) was set up at the beginning of the test (see Figures and Tables).
Statistical evaluations were performed with Microsoft Excel® 97. All variables are presented as mean and standard deviation (SD). Treatment groups were compared by Student's t-test, within-group changes by paired t-test. Two-tailed values of p<0.05 were considered significant.

[3] = intravasal 10 mg/kg, individual animals
[4] = intravasal 30 mg/kg, individual animals
[5] = intravasal 100 mg/kg, individual animals

Structure (SMILES): CC[C@H](C)[C@H](N)C(=O)N1CCC[C@H]1C(=O)N[C@H](C(=O)O)[C@@H](C)CC [Diprotin A, Ile-Pro-Ile]
- IC50 (purified porcine DP IV [1]): 4.69 µM
- Ki (purified porcine DP IV [2]): 3.45 µM
- DPIV inhibition at tmax, p.o. (plasma DP IV; Wistar rats, p.o., 100 mg/kg): no inhibition
- Plasma DP IV activity (plasma DP IV; intravasal 10 mg/kg, 5 min, Mean): 22.4 mU/ml
- Plasma DP IV activity (plasma DP IV; intravasal 10 mg/kg, 5 min, Standard. Mean): 23.3 mU/ml
- Plasma DP IV activity (plasma DP IV; intravasal 10 mg/kg, 5 min, individual animals): 23.6 mU/ml and 23.2 mU/ml and 20.2 mU/ml
- Plasma DP IV activity (plasma DP IV; intravasal 10 mg/kg, 20 min, Mean): 24.0 mU/ml
- Plasma DP IV activity (plasma DP IV; intravasal 10 mg/kg, 20 min, Standard. Mean): 24.9 mU/ml
- Plasma DP IV activity (plasma DP IV; intravasal 10 mg/kg, 20 min, individual animals): 24.2 mU/ml and 27.2 mU/ml and 20.6 mU/ml
- Plasma DP IV activity (plasma DP IV; intravasal 10 mg/kg, 40 min, Mean): 23.5 mU/ml
- Plasma DP IV activity (plasma DP IV; intravasal 10 mg/kg, 40 min, Standard. Mean): 24.4 mU/ml
- Plasma DP IV activity (plasma DP IV; intravasal 10 mg/kg, 40 min, individual animals): 24.3 mU/ml and 25.4 mU/ml and 20.6 mU/ml
- Plasma DP IV activity (plasma DP IV; intravasal 10 mg/kg, 60 min, Mean): 24.0 mU/ml
- Plasma DP IV activity (plasma DP IV; intravasal 10 mg/kg, 60 min, Standard. Mean): 25.0 mU/ml
- Plasma DP IV activity (plasma DP IV; intravasal 10 mg/kg, 60 min, individual animals): 24.3 mU/ml and 28.5 mU/ml and 19.3 mU/ml
- Plasma DP IV activity (plasma DP IV; intravasal 10 mg/kg, 120 min, Mean): 22.0 mU/ml
- Plasma DP IV activity (plasma DP IV; intravasal 10 mg/kg, 120 min, Standard. Mean): 22.9 mU/ml
- Plasma DP IV activity (plasma DP IV; intravasal 10 mg/kg, 120 min, individual animals): 24.8 mU/ml and 23.2 mU/ml and 18.0 mU/ml
- DP IV AUC 0-20 (plasma DP IV; intravasal 10 mg/kg, Mean): −17.5 mU · min/ml
- DP IV AUC 0-120 (plasma DP IV; intravasal 10 mg/kg, Mean): −93.2 mU · min/ml
- Drop of plasma DP IV activity (plasma DP IV; intravasal 10 mg/kg, Mean): 1.7 mU/ml
- Plasma DP IV activity Minimum (plasma DP IV; intravasal 10 mg/kg, Standard. Mean): 22.9 mU/ml
- DP IV AUC 0-20 (plasma DP IV; [3]): −33.7 mU · min/ml and −16.4 mU · min/ml and −2.4 mU · min/ml
- DP IV AUC 0-120 (plasma DP IV; [3]): −171.4 mU · min/ml and 14.3 mU · min/ml and −122.5 mU · min/ml
- Drop of plasma DP IV activity (plasma DP IV; [3]): 2.1 mU/ml and 2.6 mU/ml and 0.3 mU/ml
- Plasma DP IV activity Minimum (plasma DP IV; [3]): 23.6 mU/ml and 23.2 mU/ml and 20.2 mU/ml
- Time of Minimum (plasma DP IV; [3]): 5
- Plasma DP IV activity (plasma DP IV; intravasal 30 mg/kg, 5 min, Mean): 16.8 mU/ml
- Plasma DP IV activity (plasma DP IV; intravasal 30 mg/kg, 5 min, Standard. Mean): 17.3 mU/ml
- Plasma DP IV activity (plasma DP IV; intravasal 30 mg/kg, 5 min, individual animals): 25.0 mU/ml and 15.4 mU/ml and 10.1 mU/ml
- Plasma DP IV activity (plasma DP IV; intravasal 30 mg/kg, 20 min, Mean): 25.6 mU/ml
- Plasma DP IV activity (plasma DP IV; intravasal 30 mg/kg, 20 min, Standard. Mean): 26.0 mU/ml
- Plasma DP IV activity (plasma DP IV; intravasal 30 mg/kg, 20 min, individual animals): 32.9 mU/ml and 28.5 mU/ml and 15.4 mU/ml
- Plasma DP IV activity (plasma DP IV; intravasal 30 mg/kg, 40 min, Mean): 22.1 mU/ml
- Plasma DP IV activity (plasma DP IV; intravasal 30 mg/kg, 40 min, Standard. Mean): 22.5 mU/ml
- Plasma DP IV activity (plasma DP IV; intravasal 30 mg/kg, 40 min, individual animals): 25.4 mU/ml and 25.0 mU/ml and 15.8 mU/ml
- Plasma DP IV activity (plasma DP IV; intravasal 30 mg/kg, 60 min, Mean): 24.0 mU/ml
- Plasma DP IV activity (plasma DP IV; intravasal 30 mg/kg, 60 min, Standard. Mean): 24.4 mU/ml
- Plasma DP IV activity (plasma DP IV; intravasal 30 mg/kg, 60 min, individual animals): 31.1 mU/ml and 28.1 mU/ml and 12.7 mU/ml
- Plasma DP IV activity (plasma DP IV; intravasal 30 mg/kg, 120 min, Mean): 24.7 mU/ml
- Plasma DP IV activity (plasma DP IV; intravasal 30 mg/kg, 120 min, Standard. Mean): 25.1 mU/ml
- Plasma DP IV activity (plasma DP IV; intravasal 30 mg/kg, 120 min, individual animals): 34.2 mU/ml and 25.0 mU/ml and 14.9 mU/ml
- DP IV AUC 0-20 (plasma DP IV; intravasal 30 mg/kg, Mean): −69.8 mU · min/ml
- DP IV AUC 0-120 (plasma DP IV; intravasal 30 mg/kg, Mean): −128.3 mU · min/ml
- Drop of plasma DP IV activity (plasma DP IV; intravasal 30 mg/kg, Mean): 7.7 mU/ml
- Plasma DP IV activity Minimum (plasma DP IV; intravasal 30 mg/kg, Mean): 16.8 mU/ml
- Time of Minimum (plasma DP IV; intravasal 30 mg/kg, Mean): 5.0
- Plasma DP IV activity Minimum (plasma DP IV; intravasal 30 mg/kg, Standard. Mean): 17.3 mU/ml
- DP IV AUC 0-20 (plasma DP IV; [4]): −32.9 mU · min/ml and −123.9 mU · min/ml and −52.6 mU · min/ml
- DP IV AUC 0-120 (plasma DP IV; [4]): 50.4 mU · min/ml and −273.0 mU · min/ml and −162.3 mU · min/ml
- Drop of plasma DP IV activity (plasma DP IV; [4]): 5.3 mU/ml and 12.7 mU/ml
- Plasma DP IV activity Minimum (plasma DP IV; [4]): 25.0 mU/ml and 15.4 mU/ml and 10.1 mU/ml
- Time of Minimum (plasma DP IV; [4]): 5
- area under the curve of DP IV activity (plasma DP IV; intravasal 100 mg/kg b.w., AUC 0-20 min (FIG. 2), p<0.05): −159±40 mU*min*ml^−1
- Plasma DP IV activity (plasma DP IV; intravasal 100 mg/kg, 5 min, Mean): 5.1 mU/ml
- Plasma DP IV activity (plasma DP IV; intravasal 100 mg/kg, 5 min, Standard. Mean): 11.1 mU/ml
- Plasma DP IV activity (plasma DP IV; intravasal 100 mg/kg, 5 min, individual animals): 5.3 mU/ml and 4.8 mU/ml
- Plasma DP IV activity (plasma DP IV; intravasal 100 mg/kg, 10 min, Mean): 7.2 mU/ml
- Plasma DP IV activity (plasma DP IV; intravasal 100 mg/kg, 10 min, Standard. Mean): 13.2 mU/ml
- Plasma DP IV activity (plasma DP IV; intravasal 100 mg/kg, 10 min, individual animals): 6.6 mU/ml and 8.8 mU/ml and 6.1 mU/ml
- Plasma DP IV activity (plasma DP IV; intravasal 100 mg/kg, 20 min, Mean): 18.9 mU/ml
- Plasma DP IV activity (plasma DP IV; intravasal 100 mg/kg, 20 min, Standard. Mean): 24.9 mU/ml
- Plasma DP IV activity (plasma DP IV; intravasal 100 mg/kg, 20 min, individual animals): 19.7 mU/ml and 22.4 mU/ml and 14.5 mU/ml
- Plasma DP IV activity (plasma DP IV; intravasal 100 mg/kg, 40 min, Mean): 19.4 mU/ml
- Plasma DP IV activity (plasma DP IV; intravasal 100 mg/kg, 40 min, Standard. Mean): 25.4 mU/ml
- Plasma DP IV activity (plasma DP IV; intravasal 100 mg/kg, 40 min, individual animals): 21.1 mU/ml and 22.8 mU/ml and 14.5 mU/ml
- Plasma DP IV activity (plasma DP IV; intravasal 100 mg/kg, 60 min, Mean): 19.3 mU/ml
- Plasma DP IV activity (plasma DP IV; intravasal 100 mg/kg, 60 min, Standard. Mean): 25.3 mU/ml
- Plasma DP IV activity (plasma DP IV; intravasal 100 mg/kg, 60 min, individual animals): 19.7 mU/ml and 20.2 mU/ml and 18.0 mU/ml
- Plasma DP IV activity (plasma DP IV; intravasal 100 mg/kg, 120 min, Mean): 19.2 mU/ml
- Plasma DP IV activity (plasma DP IV; intravasal 100 mg/kg, 120 min, Standard. Mean): 25.2 mU/ml
- Plasma DP IV activity (plasma DP IV; intravasal 100 mg/kg, 120 min, individual animals): 21.9 mU/ml and 20.0 mU/ml and 15.8 mU/ml
- DP IV AUC 0-20 (plasma DP IV; intravasal 100 mg/kg, Mean): −159.0 mU · min/ml
- DP IV AUC 0-120 (plasma DP IV; intravasal 100 mg/kg, Mean): −133.0 mU · min/ml
- Drop of plasma DP IV activity (plasma DP IV; intravasal 100 mg/kg, Mean): 13.9 mU/ml
- Plasma DP IV activity Minimum (plasma DP IV; intravasal 100 mg/kg, Mean): 5.1 mU/ml
- Time of Minimum (plasma DP IV; intravasal 100 mg/kg, Mean): 5.0
- Plasma DP IV activity Minimum (plasma DP IV; intravasal 100 mg/kg, Standard. Mean): 11.1 mU/ml
- DP IV AUC 0-20 (plasma DP IV; [5]): −194.1 mU · min/ml and −166.7 mU · min/ml and −116.2 mU · min/ml
- DP IV AUC 0-120 (plasma DP IV; [5]): −233.6 mU · min/ml and −185.1 mU · min/ml and 19.7 mU · min/ml
- Drop of plasma DP IV activity (plasma DP IV; [5]): 15.8 mU/ml and 16.2 mU/ml and 9.6 mU/ml
- Plasma DP IV activity Minimum (plasma DP IV; [5]): 5.3 mU/ml and 4.8 mU/ml
- Time of Minimum (plasma DP IV; [5]): 5
- time after administration at which the initial level of DP IV activity was restored / inhibition stopped (plasma DP IV; intravasal administration): 20 min
- inhibition at 100 mg/kg (plasma DP IV; rat, iv, read-out: DPIV inhibition at tmax, i.v.): 73%

“And” between values parts separate entries of the source, which are not always exact repeats. Identical values can stand only once.
